The text below walks through data of patent US20250361271A1, “PEPTIDE AGONIST” (THE UNIVERSITY OF BIRMINGHAM, priority 2022, published 2025).

For data set [1] the following is noted: human, plasma.
Data set [2] relates to PBLs on cytokine stimulated HDBECs. The settings on record: for % Inhibition (0.3 nM): 0.3 nM peptide; for % Inhibition (0.3 nM) / % Inhibition (3 nM): inhibition of PBL transmigration (as a percentage of adherent cells); for effectiveness in inhibiting PBL transmigration compared with PEPITEM (% Inhibition at 0.3 and/or 3 nM): PEPITEM 41.90; for potency at inhibiting the transmigration of T cells compared with PEPITEM (IC50): PEPITEM IC50 0.02; for % Inhibition (3 nM): 3 nM peptide.

Data set [3] deals with primary murine calvarial osteoblasts. Put plainly: Alkaline phosphatase activity, murine osteoblasts. The settings on record: 8 days, vs untreated cells, FIG. 5b. It counts as cell-based, mouse. The procedure:
Skin was removed from around calvaria using forceps, and the calvaria was dissected out and cleaned of any contaminating tissue. Calvaria were added to αMEM media supplemented with 1 mg/ml of collagenase d (Roche, Basel, Switzerland, COLLD-RO). Tubes were then agitated at 37° C. for 10 minutes and the media discarded. αMEM media supplemented with 1 mg/ml of collagenase d was again added to calvaria and shaken at 37° C. for 30 minutes. Media (containing cells) was then removed and kept on ice. The calvaria were then again shaken at 37° C. for 10 minutes in 1.5 ml of αMEM media supplemented with 5 μM EDTA (Sigma-Aldrich, E7889) and the cell containing media transferred to the sample on ice, pooling the cells. […] Cells on ice were then spun down at 300 g for 4 minutes, resuspended in 1 ml of Basal media and counted using a haemocytometer. […] Mineralisation was assessed by quantifying the level of alkaline phosphate (ALP) activity (absorbance at 405 nm) per condition normalized to the absorbance generated by the untreated control (control on the graph). […] The plate was wrapped in foil and left to run for 45 minutes at 37° C. in an incubated shaker (SciQuip; Shropshire, UK) before being quantified using a Synergy HT plate reader (BioTek) with absorbance set at 405 nm.

Data set [4] deals with NIH3T3 mouse embryonic fibroblast cells. Put plainly: Cytokine release from fibroblasts. The settings on record: 15 minutes pretreatment, LPS, 24 h, at least to the same extent as PEPITEM. The class given is cell-based. The procedure:
NIH3T3 mouse embryonic fibroblast cells were established in culture. Cells were treated with PEPITEM, tripeptides or peptide-mimetics for 15 minutes or had no treatment prior to the addition of LPS. Supernatants were collected at 24 h. IL-6 and TNF-α concentrations in the supernatants were measured using ELISA. Data are from 3 experiments, ###=p<0.001, ##=p<0.01 vs control group; *=p<0.05: **=P≤0.01 vs LPS, by ANOVA.

The subject of data set [5] is HaCaT human epidermal keratinocytes. Put plainly: Keratinocyte proliferation (MTT). The class given is cell-based. The settings on record: M5 cytokines, 72 hours; at least to the same extent as PEPITEM; FIG. 14. The procedure: HaCaT human epidermal keratinocytes were established in culture in 96 well plates. Cells were treated with PEPITEM, tripeptides or peptide-mimetics for 15 minutes or had no treatment prior to the addition of M5 cytokines (IL-17A, IL-22, IL-1α, OSM and TNFα). After 72 hours, MTT substrate was added to the wells and incubated for 3 hours. Colourimetric intensity as a measure of proliferation was assayed using a plate reader.

A short description of the next data set: T1/2 in plasma (mouse). It counts as in vitro ADME. The settings on record: for stability compared with PEPITEM: in mouse plasma, human plasma, and or mouse blood; for half-life: mouse, plasma, 1 μM peptide, 37° C. An excerpt:
Take all measurements in duplicate.

Data set [6] has as its system Murine macrophage cell line J774. As to the kind of experiment: Cytokine release from macrophages. The class given is cell-based. The settings on record: 15 minutes pretreatment, LPS, 24 h, at least to the same extent as PEPITEM. As for the experimental part: Murine macrophage cell line J774 was established in culture. Cells were treated with PEPITEM, tripeptides, or peptide-mimetics for 15 minutes or had no treatment prior to the addition of LPS (a phlogistic stimulus). Supernatants were collected at 24 h. IL-6 and TNF-α concentrations in the supernatants were measured using ELISA. Data are from 3 experiments, ####=p<0.0001 vs control group; *=p<0.05: **=P≤0.01 vs LPS, by ANOVA.

Data set [7] has as its system neutrophils on TNF-α-stimulated endothelial cells. Put plainly: Neutrophil adhesion to TNF-α-stimulated endothelial cells. The class given is cell-based. To be noted: neutrophils pre-treated 15 minutes; FIG. 15. The procedure:
Cultured endothelial cells (ECs) were stimulated with 100 U of TNF-α for 4 hours. Neutrophils were isolated from freshly drawn whole blood. Neutrophils or ECs were pre-treated with PEPITEM, SVT, or QGA for 15 minutes prior to adhesion assay or were untreated. Neutrophils were added to wells containing stimulated ECs and incubated for 15 minutes. Wells were fixed and none-adherent neutrophils washed out. Adhesion was assessed by phase contrast microscopy. Data are form at least 3 independent experiments. **=p<0.01 by ANOVA.

Data set [8] has as its system antigen induced monoarthritis. As to the kind of experiment: Monoarthritis model. The class given is in vivo, mice. The settings on record: intraperitoneal injection at 0, 24 h, 48 h and 72 h; FIG. 6. The procedure: Mice were injected (sub-cutaneously) on one occasion with 100 μl antigen (bovine serum albumin; BSA) containing Freund's complete adjuvant (CFA) into a maximum of two sites in the lower dorsal area. At day 21, the mice were injected (10 μl, intra-articular) with the same antigen alone, in the absence of CFA, in one knee joint and PBS in the contralateral knee joint as a non-inflamed control. Animals received immune modulating agents (PEPITEM; SVT; QGA; or PBS as a control) by intraperitoneal injection at time 0, 24 h, 48 h and 72 h. Joint swelling as a measure of inflammation was conducted using calibrated calipers.

Data set [9] is classed as in vitro ADME, pig. As for the experimental part:
Pig eyes were treated with either […] or one of TVS (reverse sequence of SVT comprising amino acids in D-isomeric forms), […] and QGA, derived from the […] sequence. The eyes were then incubated in a dark humified chamber. The eyes were dissected, and the vitreous humour and retina were harvested. The samples were sonicated to break up the tissue and purified using a C18 column. Once purified, the samples were digested and analysed by mass spectrometry.

Data set [10] relates to inflammatory leukocytic infiltrate of mice with peritonitis. Put plainly: Zymosan peritonitis, leukocyte sub-sets. It counts as in vivo. The settings on record: 4 hours after zymosan; FIG. 10c. As for the experimental part:
Wild type mice were injected by the intraperitoneal route with 0.1 mg of sterile zymosan, stimulating peritonitis. After 48 hours (for the T cell and B cell tests) or 4 hours (for the neutrophil tests), the inflammatory leukocytic infiltrate was collected by peritoneal lavage. Leukocytes were washed and labelled with sub-set specific antibodies conjugated with fluorescent markers. The number of each sub-set was analysed by flow cytometry.

SMILES strings stand for the structures. Like-named read-outs stand apart in the source and are kept apart here.

In data set [1], `CCNC(=O)[C@@H](NC(=O)[C@@H](NC(=O)[C@@H](N)CO)C(C)C)[C@@H](C)O` [SEQ ID NO. 6, H-SVT-NH-Ethyl] registered a half-life above 180 min. Moreover, in data set [2], inhibition was half-maximal at 0.017 nM (IC50), the “% Inhibition (0.3 nM)” value was determined as 46.00%, the “effectiveness in inhibiting PBL transmigration compared with PEPITEM (% Inhibition at 0.3 and/or 3 nM)” value was “more effective” and the “potency at inhibiting the transmigration of T cells compared with PEPITEM (IC50)” value is recorded as “more potent”. Also, in [3], the “ALP activity (maturation mineralisation), murine osteoblasts” value is on record as “significantly increased”. Also, the “concentration of IL-6 released” value in data set [4] (FIG. 13A) was “reduce”. For the same compound, in data set [4] (FIG. 13B), the “concentration of TNF-α released” value is reported as “reduce”. Moreover, the “cell proliferation of keratinocytes” value in data set [5] is reported as “reduce cell proliferation of keratinocytes”. In addition, in the data set “T1/2 in plasma (mouse)”, the “stability compared with PEPITEM” value is listed as “at least as stable” and the half-life was above 180 min. The “concentration of IL-6 released” value in data set [6] (FIG. 12A) was “reduce”. For the same compound, in data set [6] (FIG. 12B), the “concentration of TNF-α released” value was “reduce”.
Consider `C[C@@H](O)[C@H](NC(=O)[C@H](Cc1c[nH]c2ccccc12)NC(=O)[C@@H](N)CO)C(N)=O` [SEQ ID NO. 17, H-SWT-NH2], for which, in data set [2], the IC50 worked out at 0.0236 nM, the “% Inhibition (0.3 nM)” value stood at 46.69%, the “% Inhibition (3 nM)” value is 74.47% and the “effectiveness in inhibiting PBL transmigration compared with PEPITEM (% Inhibition at 0.3 and/or 3 nM)” value is “more effective”. This compound also registered a half-life in “T1/2 in plasma (mouse)” of 74 min.
Compound `CC(=O)N[C@@H](CCC(N)=O)C(=O)NCC(=O)N[C@@H](C)C(=O)O` [SEQ ID NO. 19, Ac-QGA] returned an IC50 in [2] of 0.03 nM. Further, in data set [5], the “cell proliferation of keratinocytes” value was “reduce cell proliferation of keratinocytes”.
As to `CC(C)[C@H](NC(=O)[C@@H](N)CO)C(=O)N[C@H](C(=O)O)[C@@H](C)O` [SEQ ID NO. 2, H-SVT], in [2], the IC50 is 0.15 nM; the “IC50, inhibition of trans-endothelial migration of PBLs” value is 0.04558 ng/mL; the “% Inhibition (0.3 nM)” value is 42.20%; the “effectiveness in inhibiting PBL transmigration compared with PEPITEM (% Inhibition at 0.3 and/or 3 nM)” value is recorded as “more effective”. Moreover, the “effect on PBL adhesion” value in [2] (compared to untreated PBL (PBL0)) is on record as “Neither the SVT tripeptide nor the QGA tripeptide exhibited any significant effect”. Moreover, in data set [7], the “neutrophil adhesion to endothelial cells” value is on record as “reduce neutrophil adhesion to a greater extent than PEPITEM”. Moreover, the “ALP activity (maturation mineralisation), murine osteoblasts” value in data set [3] is given as “significantly increased”. Besides, the “knee / joint swelling” value in data set [8] is given as “equipotent in limiting joint swelling”. Moreover, the “eye tissue in which the peptide was found by mass spectrometry” value in data set [9] is recorded as “Vitreous humour & Retina”. Moreover, in data set [10], the “number of neutrophils in the inflammatory leukocytic infiltrate” value was “reduce the number of neutrophils”. In the data set “T1/2 in plasma (mouse)”, this compound had a half-life of 20 min.
Regarding `CC(=O)N[C@@H](CCC(N)=O)C(=O)NCC(=O)N[C@@H](C)C(=O)O` [QGA], the “IC50, inhibition of trans-endothelial migration of PBLs” value in data set [2] is 0.009438 ng/mL. Further, the “eye tissue in which the peptide was found by mass spectrometry” value in data set [9] is reported as “Retina only”.
For `CC(=O)N[C@@H](CCC(N)=O)C(=O)NCC(=O)N[C@@H](C)C(N)=O` [SEQ ID NO. 20, Ac-QGA-NH2], the half-life in [1] is above 180 min. Besides, in data set [2], the IC50 stood at 0.1 nM and the “% Inhibition (3 nM)” value is recorded as 28.60%. Moreover, in “T1/2 in plasma (mouse)”, the “stability compared with PEPITEM” value was “at least as stable” and the half-life came out at 49 min.
As for `CC(C)[C@H](NC(=O)[C@@H](N)CO)C(=O)N[C@H](C(N)=O)[C@@H](C)O` [SEQ ID NO. 4, H-SVT-NH2], in data set [1], the half-life was above 180 min. Besides, in data set [2], inhibition was half-maximal at 0.01 nM (IC50), the “% Inhibition (3 nM)” value stood at 38.50% and the “potency at inhibiting the transmigration of T cells compared with PEPITEM (IC50)” value is given as “more potent”. In “T1/2 in plasma (mouse)”, the “stability compared with PEPITEM” value was “at least as stable” and the half-life was above 180 min.

As usually defined, the half-life is the time in which the quantity being followed falls by half. A low value points to fast loss. Broadly, the IC50 is the concentration that gives 50% inhibition.
